For assay [1], the target named is T1, Potassium voltage-gated channel subfamily A member 3 (Homo sapiens, UniProt P22001). The assay can be described thus: cell-based. More on the design: species or system Blood.
For assay [2], the target named is T1, Potassium voltage-gated channel subfamily A member 3. Further details: species or system Blood.

Chains of the proteins cited; added tags and fusions are not shown.
UniProt P22001, whole entry: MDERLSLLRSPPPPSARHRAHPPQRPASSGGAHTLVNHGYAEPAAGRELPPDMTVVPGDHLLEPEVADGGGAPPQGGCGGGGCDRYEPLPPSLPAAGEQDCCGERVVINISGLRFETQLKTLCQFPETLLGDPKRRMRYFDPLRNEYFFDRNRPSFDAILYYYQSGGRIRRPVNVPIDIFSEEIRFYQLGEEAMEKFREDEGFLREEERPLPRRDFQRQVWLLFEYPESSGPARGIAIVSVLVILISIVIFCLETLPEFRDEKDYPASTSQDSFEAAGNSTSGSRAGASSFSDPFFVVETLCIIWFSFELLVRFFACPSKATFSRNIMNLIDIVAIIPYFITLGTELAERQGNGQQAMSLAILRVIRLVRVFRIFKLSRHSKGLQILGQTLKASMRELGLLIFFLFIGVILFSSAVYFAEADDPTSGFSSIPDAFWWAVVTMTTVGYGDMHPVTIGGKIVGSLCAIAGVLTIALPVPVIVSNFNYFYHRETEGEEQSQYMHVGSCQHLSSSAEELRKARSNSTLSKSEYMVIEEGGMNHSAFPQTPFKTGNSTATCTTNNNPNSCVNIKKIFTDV

Drawing on ChEMBL document CHEMBL3608278 (J Med Chem, 2015), this text covers IC50 for nine compounds.

pIC50: −log10 of the molar value.

Compound `CC[C@H](C)[C@@H]1NC(=O)[C@@H](NC(=O)[C@H](CO)NC(=O)[C@@H](N)CCCNC(=N)N)CSSC[C@@H](C(=O)O)NC(=O)[C@H]([C@@H](C)O)NC(=O)CNC(=O)[C@@H]2CSSC[C@@H]3NC(=O)[C@H](CCC(N)=O)NC(=O)[C@H](Cc4ccccc4)NC(=O)[C@H](C)NC(=O)[C@H]([C@@H](C)O)NC(=O)[C@H](CSSC[C@H](NC(=O)[C@H](Cc4ccccc4)NC(=O)[C@H](CO)NC(=O)[C@H](CC(C)C)NC(=O)[C@H](CCCCN)NC(=O)[C@H](Cc4ccc(O)cc4)NC(=O)[C@H](CCCCN)NC(=O)[C@H](CCSC)NC(=O)[C@H](CO)NC(=O)[C@H](Cc4cnc[nH]4)NC(=O)[C@H](CCCCN)NC3=O)C(=O)N[C@@H](CCCNC(=N)N)C(=O)N[C@@H](CCCCN)C(=O)N[C@@H]([C@@H](C)O)C(=O)N2)NC(=O)[C@H](CCCNC(=N)N)NC(=O)[C@H](CO)NC(=O)[C@H](CCCCN)NC(=O)[C@@H]2CCCN2C(=O)[C@H]([C@@H](C)CC)NC(=O)[C@H]([C@@H](C)O)NC(=O)[C@H](CC(=O)O)NC1=O` had a pIC50 in assay [1] of 10.35.
Take `CC[C@H](C)[C@@H]1NC(=O)[C@@H](NC(=O)[C@H](CO)NC(=O)[C@@H](N)CCCNC(=N)N)CSSC[C@@H](C(=O)O)NC(=O)[C@H]([C@@H](C)O)NC(=O)CNC(=O)[C@@H]2CSSC[C@@H]3NC(=O)[C@H](CCC(N)=O)NC(=O)[C@H](Cc4ccccc4)NC(=O)[C@H](C)NC(=O)[C@H]([C@@H](C)O)NC(=O)[C@H](CSSC[C@H](NC(=O)[C@H](Cc4ccccc4)NC(=O)[C@H](CO)NC(=O)[C@H](CC(C)C)NC(=O)[C@H](CCCNC(=N)N)NC(=O)[C@H](Cc4ccc(O)cc4)NC(=O)[C@H](CCCCN)NC(=O)[C@H](CCSC)NC(=O)[C@H](C)NC(=O)[C@H](Cc4cnc[nH]4)NC(=O)[C@H](CCCCN)NC3=O)C(=O)N[C@@H](CCCNC(=N)N)C(=O)N[C@@H](CCCCN)C(=O)N[C@@H]([C@@H](C)O)C(=O)N2)NC(=O)[C@H](CCCNC(=N)N)NC(=O)[C@H](CO)NC(=O)[C@H](CCCCN)NC(=O)[C@@H]2CCCN2C(=O)[C@H]([C@@H](C)CC)NC(=O)[C@H]([C@@H](C)O)NC(=O)[C@H](CC(=O)O)NC1=O`: the pIC50 was 9.60 in assay [1] and 9.09 in assay [2].
The corresponding values for `CC[C@H](C)[C@@H]1NC(=O)[C@@H](NC(=O)[C@H](CO)NC(=O)[C@@H](N)CCCNC(=N)N)CSSC[C@@H](C(=O)O)NC(=O)[C@H]([C@@H](C)O)NC(=O)CNC(=O)[C@@H]2CSSC[C@@H]3NC(=O)[C@H](CCC(N)=O)NC(=O)[C@H](Cc4ccccc4)NC(=O)[C@H](C)NC(=O)[C@H]([C@@H](C)O)NC(=O)[C@H](CSSC[C@H](NC(=O)[C@H](Cc4ccccc4)NC(=O)[C@H](CO)NC(=O)[C@H](CC(C)C)NC(=O)[C@H](CCCNC(=N)N)NC(=O)[C@H](Cc4ccc(O)cc4)NC(=O)[C@H](CCCCN)NC(=O)[C@H](CCSC)NC(=O)[C@H](CO)NC(=O)[C@H](Cc4cnc[nH]4)NC(=O)[C@H](CCCCN)NC3=O)C(=O)N[C@@H](CCCNC(=N)N)C(=O)N[C@@H](CCCCN)C(=O)N[C@@H]([C@@H](C)O)C(=O)N2)NC(=O)[C@H](CCCNC(=N)N)NC(=O)[C@H](CO)NC(=O)[C@H](CCCCN)NC(=O)[C@H](CCCCN)NC(=O)[C@H]([C@@H](C)CC)NC(=O)[C@H]([C@@H](C)O)NC(=O)[C@H](CC(=O)O)NC1=O` are 9.81 and 9.01.
Turning to `CC[C@H](C)[C@@H]1NC(=O)[C@@H](NC(=O)[C@H](CO)NC(=O)[C@@H](N)CCCNC(=N)N)CSSC[C@@H](C(=O)O)NC(=O)[C@H]([C@@H](C)O)NC(=O)CNC(=O)[C@@H]2CSSC[C@@H]3NC(=O)[C@H](CCC(N)=O)NC(=O)[C@H](Cc4ccccc4)NC(=O)[C@H](C)NC(=O)[C@H]([C@@H](C)O)NC(=O)[C@H](CSSC[C@H](NC(=O)[C@H](Cc4ccccc4)NC(=O)[C@H](CO)NC(=O)[C@H](CC(C)C)NC(=O)[C@H](CCCNC(=N)N)NC(=O)[C@H](Cc4ccc(O)cc4)NC(=O)[C@H](CCCCN)NC(=O)[C@H](CCSC)NC(=O)[C@H](CO)NC(=O)[C@H](Cc4cnc[nH]4)NC(=O)[C@H](CCCCN)NC3=O)C(=O)N[C@@H](CCCNC(=N)N)C(=O)N[C@@H](CCCCN)C(=O)N[C@@H]([C@@H](C)O)C(=O)N2)NC(=O)[C@H](CCCNC(=N)N)NC(=O)[C@H](CO)NC(=O)[C@H](Cc2cccc3ccccc23)NC(=O)[C@@H]2CCCN2C(=O)[C@H]([C@@H](C)CC)NC(=O)[C@H]([C@@H](C)O)NC(=O)[C@H](CC(=O)O)NC1=O`, the figures for the negative-log IC50 (pIC50) in assay [1] and in assay [2] were 9.43 and 9.18, respectively.
On to `CC[C@H](C)[C@@H]1NC(=O)[C@@H](NC(=O)[C@H](CO)NC(=O)[C@@H](N)CCCNC(=N)N)CSSC[C@@H](C(N)=O)NC(=O)[C@H]([C@@H](C)O)NC(=O)CNC(=O)[C@@H]2CSSC[C@@H]3NC(=O)[C@H](CCCCN)NC(=O)[C@H](Cc4ccccc4)NC(=O)[C@H](C)NC(=O)[C@H]([C@@H](C)O)NC(=O)[C@H](CSSC[C@H](NC(=O)[C@H](Cc4ccccc4)NC(=O)[C@H](CO)NC(=O)[C@H](CC(C)C)NC(=O)[C@H](CCCNC(=N)N)NC(=O)[C@H](Cc4ccc(O)cc4)NC(=O)[C@H](CCCCN)NC(=O)[C@H](CCSC)NC(=O)[C@H](CO)NC(=O)[C@H](Cc4cnc[nH]4)NC(=O)[C@H](CCCCN)NC3=O)C(=O)N[C@@H](CCCNC(=N)N)C(=O)N[C@@H](CCCCN)C(=O)N[C@@H]([C@@H](C)O)C(=O)N2)NC(=O)[C@H](CCCNC(=N)N)NC(=O)[C@H](CO)NC(=O)[C@H](CCCCN)NC(=O)[C@@H]2CCCN2C(=O)[C@H]([C@@H](C)CC)NC(=O)[C@H]([C@@H](C)O)NC(=O)[C@H](CC(=O)O)NC1=O`, for which the figures for the pIC50 in assay [1] and in assay [2] were 9.65 and 9.56, respectively.
Turning to `CC[C@H](C)[C@@H]1NC(=O)[C@@H](NC(=O)[C@H](CO)NC(=O)[C@@H](N)CCCNC(=N)N)CSSC[C@@H](C(=O)O)NC(=O)[C@H]([C@@H](C)O)NC(=O)CNC(=O)[C@@H]2CSSC[C@@H]3NC(=O)[C@H](CCC(N)=O)NC(=O)[C@H](Cc4ccccc4)NC(=O)[C@H](C)NC(=O)[C@H](C)NC(=O)[C@H](CSSC[C@H](NC(=O)[C@H](Cc4ccccc4)NC(=O)[C@H](CO)NC(=O)[C@H](CC(C)C)NC(=O)[C@H](CCCNC(=N)N)NC(=O)[C@H](Cc4ccc(O)cc4)NC(=O)[C@H](CCCCN)NC(=O)[C@H](CCSC)NC(=O)[C@H](CO)NC(=O)[C@H](Cc4cnc[nH]4)NC(=O)[C@H](CCCCN)NC3=O)C(=O)N[C@@H](CCCNC(=N)N)C(=O)N[C@@H](CCCCN)C(=O)N[C@@H]([C@@H](C)O)C(=O)N2)NC(=O)[C@H](CCCNC(=N)N)NC(=O)[C@H](CO)NC(=O)[C@H](CCCCN)NC(=O)[C@@H]2CCCN2C(=O)[C@H]([C@@H](C)CC)NC(=O)[C@H]([C@@H](C)O)NC(=O)[C@H](CC(=O)O)NC1=O`, the pIC50 in assay [1] was 9.41; in assay [2] it was 9.10.
In assay [2], `CC[C@H](C)[C@@H]1NC(=O)[C@@H](NC(=O)[C@H](CO)NC(=O)[C@@H](N)CCCNC(=N)N)CSSC[C@@H](C(=O)O)NC(=O)[C@H]([C@@H](C)O)NC(=O)CNC(=O)[C@@H]2CSSC[C@@H]3NC(=O)[C@H](CCC(N)=O)NC(=O)[C@H](Cc4ccccc4)NC(=O)[C@H](C)NC(=O)[C@H]([C@@H](C)O)NC(=O)[C@H](CSSC[C@H](NC(=O)[C@H](Cc4ccccc4)NC(=O)[C@H](CO)NC(=O)[C@H](CC(C)C)NC(=O)[C@H](CCCNC(=N)N)NC(=O)[C@H](Cc4ccc(O)cc4)NC(=O)[C@H](CCCCN)NC(=O)[C@H](CCSC)NC(=O)[C@H](CO)NC(=O)[C@H](CCC(=O)O)NC(=O)[C@H](CCCCN)NC3=O)C(=O)N[C@@H](CCCNC(=N)N)C(=O)N[C@@H](CCCCN)C(=O)N[C@@H]([C@@H](C)O)C(=O)N2)NC(=O)[C@H](CCCNC(=N)N)NC(=O)[C@H](CO)NC(=O)[C@H](CCCCN)NC(=O)[C@@H]2CCCN2C(=O)[C@H]([C@@H](C)CC)NC(=O)[C@H]([C@@H](C)O)NC(=O)[C@H](CC(=O)O)NC1=O` had a pIC50 of 9.67.
On to `CC[C@H](C)[C@@H]1NC(=O)[C@@H](NC(=O)[C@H](CO)NC(=O)[C@@H](N)CCCNC(=N)N)CSSC[C@@H](C(=O)O)NC(=O)[C@H]([C@@H](C)O)NC(=O)[C@H](Cc2cccc3ccccc23)NC(=O)[C@@H]2CSSC[C@@H]3NC(=O)[C@H](CCC(N)=O)NC(=O)[C@H](Cc4ccccc4)NC(=O)[C@H](C)NC(=O)[C@H]([C@@H](C)O)NC(=O)[C@H](CSSC[C@H](NC(=O)[C@H](Cc4ccccc4)NC(=O)[C@H](CO)NC(=O)[C@H](CC(C)C)NC(=O)[C@H](CCCNC(=N)N)NC(=O)[C@H](Cc4ccc(O)cc4)NC(=O)[C@H](CCCCN)NC(=O)[C@H](CCSC)NC(=O)[C@H](CO)NC(=O)[C@H](Cc4cnc[nH]4)NC(=O)[C@H](CCCCN)NC3=O)C(=O)N[C@@H](CCCNC(=N)N)C(=O)N[C@@H](CCCCN)C(=O)N[C@@H]([C@@H](C)O)C(=O)N2)NC(=O)[C@H](CCCNC(=N)N)NC(=O)[C@H](CO)NC(=O)[C@H](CCCCN)NC(=O)[C@@H]2CCCN2C(=O)[C@H]([C@@H](C)CC)NC(=O)[C@H]([C@@H](C)O)NC(=O)[C@H](CC(=O)O)NC1=O`, for which the pIC50 in assay [2] is 8.84.
In turn, `CC[C@H](C)[C@@H]1NC(=O)[C@@H](NC(=O)[C@H](CO)NC(=O)[C@@H](N)CCCNC(=N)N)CSSC[C@@H](C(=O)O)NC(=O)[C@H]([C@@H](C)O)NC(=O)[C@H](CCC(=O)O)NC(=O)[C@@H]2CSSC[C@@H]3NC(=O)[C@H](CCC(N)=O)NC(=O)[C@H](Cc4ccccc4)NC(=O)[C@H](C)NC(=O)[C@H]([C@@H](C)O)NC(=O)[C@H](CSSC[C@H](NC(=O)[C@H](Cc4ccccc4)NC(=O)[C@H](CO)NC(=O)[C@H](CC(C)C)NC(=O)[C@H](CCCNC(=N)N)NC(=O)[C@H](Cc4ccc(O)cc4)NC(=O)[C@H](CCCCN)NC(=O)[C@H](CCSC)NC(=O)[C@H](CO)NC(=O)[C@H](Cc4cnc[nH]4)NC(=O)[C@H](CCCCN)NC3=O)C(=O)N[C@@H](CCCNC(=N)N)C(=O)N[C@@H](CCCCN)C(=O)N[C@@H]([C@@H](C)O)C(=O)N2)NC(=O)[C@H](CCCNC(=N)N)NC(=O)[C@H](CO)NC(=O)[C@H](CCCCN)NC(=O)[C@@H]2CCCN2C(=O)[C@H]([C@@H](C)CC)NC(=O)[C@H]([C@@H](C)O)NC(=O)[C@H](CC(=O)O)NC1=O` had a pIC50 in assay [1] of 10.26.
